Test results from patent US9012443B2 (Amgen Inc., priority 2011, dated 2015).

By UniProt entry, the sequences of proteins in these tests, tags left out.
UniProt Q15858, whole entry: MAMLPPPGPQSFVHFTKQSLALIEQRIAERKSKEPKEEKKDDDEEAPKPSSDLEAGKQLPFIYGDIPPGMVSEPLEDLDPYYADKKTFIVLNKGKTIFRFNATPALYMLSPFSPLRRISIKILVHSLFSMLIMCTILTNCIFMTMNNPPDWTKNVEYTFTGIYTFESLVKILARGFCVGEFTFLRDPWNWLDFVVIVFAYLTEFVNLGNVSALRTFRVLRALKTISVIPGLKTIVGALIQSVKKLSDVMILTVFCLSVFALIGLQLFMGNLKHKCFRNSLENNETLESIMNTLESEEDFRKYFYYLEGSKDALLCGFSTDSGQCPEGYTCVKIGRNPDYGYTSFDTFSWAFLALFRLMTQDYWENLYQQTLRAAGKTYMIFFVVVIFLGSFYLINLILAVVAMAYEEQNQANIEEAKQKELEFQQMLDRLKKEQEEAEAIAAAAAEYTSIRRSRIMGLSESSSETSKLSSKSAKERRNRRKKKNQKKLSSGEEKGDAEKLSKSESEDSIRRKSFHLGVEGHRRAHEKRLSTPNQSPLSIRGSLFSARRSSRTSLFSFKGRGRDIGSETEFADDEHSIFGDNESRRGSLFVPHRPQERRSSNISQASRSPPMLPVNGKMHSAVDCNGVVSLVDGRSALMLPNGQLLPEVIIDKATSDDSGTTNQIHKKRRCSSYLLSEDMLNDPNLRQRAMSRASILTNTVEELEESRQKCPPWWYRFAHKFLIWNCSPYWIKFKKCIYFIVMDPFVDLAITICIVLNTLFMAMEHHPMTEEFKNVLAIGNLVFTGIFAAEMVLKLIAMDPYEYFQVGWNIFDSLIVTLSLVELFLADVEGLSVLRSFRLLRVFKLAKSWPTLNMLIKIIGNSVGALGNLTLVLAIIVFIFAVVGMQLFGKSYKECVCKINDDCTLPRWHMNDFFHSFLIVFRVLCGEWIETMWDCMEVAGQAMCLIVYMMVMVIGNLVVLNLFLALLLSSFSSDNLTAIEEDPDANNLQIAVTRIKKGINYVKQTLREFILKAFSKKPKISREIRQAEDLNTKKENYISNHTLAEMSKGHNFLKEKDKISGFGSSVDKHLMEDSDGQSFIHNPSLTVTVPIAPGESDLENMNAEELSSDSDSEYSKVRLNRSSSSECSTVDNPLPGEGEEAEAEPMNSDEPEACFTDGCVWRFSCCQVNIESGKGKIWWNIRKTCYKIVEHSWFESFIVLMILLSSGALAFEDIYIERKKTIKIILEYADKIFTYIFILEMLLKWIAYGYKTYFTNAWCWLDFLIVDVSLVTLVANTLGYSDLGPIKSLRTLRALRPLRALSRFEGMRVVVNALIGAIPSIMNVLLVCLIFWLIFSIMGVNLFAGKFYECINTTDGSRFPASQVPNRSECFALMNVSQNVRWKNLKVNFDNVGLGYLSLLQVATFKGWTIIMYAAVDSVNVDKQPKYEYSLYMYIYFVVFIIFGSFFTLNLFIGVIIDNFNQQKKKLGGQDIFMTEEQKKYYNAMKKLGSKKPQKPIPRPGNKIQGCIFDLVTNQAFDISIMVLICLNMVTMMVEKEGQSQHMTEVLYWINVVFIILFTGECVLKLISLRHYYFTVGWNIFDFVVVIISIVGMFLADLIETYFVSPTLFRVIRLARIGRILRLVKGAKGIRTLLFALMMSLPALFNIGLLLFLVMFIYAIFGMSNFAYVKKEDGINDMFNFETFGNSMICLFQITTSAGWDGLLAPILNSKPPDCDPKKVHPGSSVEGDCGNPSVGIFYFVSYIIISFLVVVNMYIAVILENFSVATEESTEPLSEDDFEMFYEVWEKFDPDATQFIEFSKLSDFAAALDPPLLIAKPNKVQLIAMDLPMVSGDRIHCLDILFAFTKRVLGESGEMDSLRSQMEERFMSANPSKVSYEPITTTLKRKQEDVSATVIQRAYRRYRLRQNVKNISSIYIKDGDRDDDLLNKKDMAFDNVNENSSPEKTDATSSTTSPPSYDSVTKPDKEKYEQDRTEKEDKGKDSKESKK
UniProt Q14524, whole entry: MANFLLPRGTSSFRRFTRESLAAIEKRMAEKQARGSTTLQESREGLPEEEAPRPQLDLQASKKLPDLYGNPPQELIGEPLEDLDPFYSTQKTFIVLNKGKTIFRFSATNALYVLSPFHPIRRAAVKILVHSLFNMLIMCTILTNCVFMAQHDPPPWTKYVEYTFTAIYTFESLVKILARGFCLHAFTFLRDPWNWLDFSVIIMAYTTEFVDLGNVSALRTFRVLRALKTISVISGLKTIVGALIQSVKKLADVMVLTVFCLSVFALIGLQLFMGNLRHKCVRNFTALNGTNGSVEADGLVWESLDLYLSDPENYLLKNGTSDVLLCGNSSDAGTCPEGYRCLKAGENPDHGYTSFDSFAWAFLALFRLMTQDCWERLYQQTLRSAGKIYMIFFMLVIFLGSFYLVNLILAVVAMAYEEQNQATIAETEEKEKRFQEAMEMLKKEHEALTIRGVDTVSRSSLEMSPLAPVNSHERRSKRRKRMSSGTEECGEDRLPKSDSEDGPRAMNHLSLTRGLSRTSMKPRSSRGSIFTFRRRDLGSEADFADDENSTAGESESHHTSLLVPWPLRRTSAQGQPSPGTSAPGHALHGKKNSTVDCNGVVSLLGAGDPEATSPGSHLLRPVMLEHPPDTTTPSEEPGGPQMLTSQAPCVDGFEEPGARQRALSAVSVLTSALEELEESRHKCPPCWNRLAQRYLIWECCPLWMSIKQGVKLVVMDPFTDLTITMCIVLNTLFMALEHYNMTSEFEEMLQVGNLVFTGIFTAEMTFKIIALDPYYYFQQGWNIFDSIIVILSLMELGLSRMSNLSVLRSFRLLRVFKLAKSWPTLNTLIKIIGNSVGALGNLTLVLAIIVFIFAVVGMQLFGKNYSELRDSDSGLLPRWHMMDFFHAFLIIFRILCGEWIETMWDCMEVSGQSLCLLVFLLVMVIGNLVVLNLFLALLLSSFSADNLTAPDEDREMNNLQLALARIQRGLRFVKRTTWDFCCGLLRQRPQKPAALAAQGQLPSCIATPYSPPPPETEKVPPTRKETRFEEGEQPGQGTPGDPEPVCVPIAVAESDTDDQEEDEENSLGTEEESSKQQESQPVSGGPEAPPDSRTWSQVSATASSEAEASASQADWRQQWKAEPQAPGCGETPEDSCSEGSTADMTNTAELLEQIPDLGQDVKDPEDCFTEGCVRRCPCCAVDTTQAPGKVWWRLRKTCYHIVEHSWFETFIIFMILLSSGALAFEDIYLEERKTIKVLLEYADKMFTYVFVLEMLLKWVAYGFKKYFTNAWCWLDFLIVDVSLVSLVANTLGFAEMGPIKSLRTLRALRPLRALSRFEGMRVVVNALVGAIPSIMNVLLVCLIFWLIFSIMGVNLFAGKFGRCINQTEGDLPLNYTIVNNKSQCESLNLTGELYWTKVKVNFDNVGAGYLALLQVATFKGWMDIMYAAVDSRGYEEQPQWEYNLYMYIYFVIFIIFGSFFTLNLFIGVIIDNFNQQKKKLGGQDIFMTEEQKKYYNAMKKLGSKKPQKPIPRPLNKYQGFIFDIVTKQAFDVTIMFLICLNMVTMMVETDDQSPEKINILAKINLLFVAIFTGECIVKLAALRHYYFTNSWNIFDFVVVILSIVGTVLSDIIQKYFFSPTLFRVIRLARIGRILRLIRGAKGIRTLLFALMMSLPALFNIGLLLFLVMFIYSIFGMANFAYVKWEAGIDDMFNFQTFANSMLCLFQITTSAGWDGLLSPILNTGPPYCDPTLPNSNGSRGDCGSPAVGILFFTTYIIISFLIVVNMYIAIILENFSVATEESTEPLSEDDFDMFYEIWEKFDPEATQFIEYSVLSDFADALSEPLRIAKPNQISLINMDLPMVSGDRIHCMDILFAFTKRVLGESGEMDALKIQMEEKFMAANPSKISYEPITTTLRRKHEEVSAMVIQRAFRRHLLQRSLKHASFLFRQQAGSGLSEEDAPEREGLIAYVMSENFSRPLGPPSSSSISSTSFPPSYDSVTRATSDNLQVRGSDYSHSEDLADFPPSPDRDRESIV

Experiments:
Nav 1.7 = Nav 1.7 (Homo sapiens (Human), UniProt Q15858); assay: Nav 1.7 in vitro PX assay (PatchXpress whole cell voltage clamp); format: cell-based; details: read-out: Nav1.7 PX IC50 IP; 293 cells, human Nav1.7, partially inactivated state
Nav 1.5 = Nav 1.5 (Homo sapiens (Human), UniProt Q14524); assay: Nav 1.5 in vitro PX assay (PatchXpress whole cell voltage clamp); format: cell-based; details: read-out: Nav1.5 PX IC50; 293 cells stably transfected with Nav 1.5; second part of table

COc1cc(-c2cccc(F)c2)ccc1-c1nncc2cc(S(=O)(=O)Nc3ccncn3)ccc12 gave an IC50 (Nav 1.7) of 581 nM and an IC50 (Nav 1.5) greater than 30000 nM.
